Biological target: T1, mutant ATXN1 protein (His-ATXN1-Q92) (Homo sapiens, UniProt P54253, INS208QQQQQQQQQQQQQQQQQQQQQQQQQQQQQQQQQQQQQQQQQQQQQQQQQQQQQQQQQQQQQQQQQQQQQQQQQQQQQQQQ)
T1 construct: expressed in transfected cells; host or cells: HEK293T cells (ATCC, CRL-3216)
Experiment: HTRF mutant ATXN1 level in His-ATXN1-Q92-expressing cells
Assay type: cell-based

Protein sequences, listed by entry. Tags and fused reporters are not part of them. Chains listed by the source or under a name are the forms on record and can include a tag or linker.
UniProt P54253, with tags, fused parts or gaps with the stated changes: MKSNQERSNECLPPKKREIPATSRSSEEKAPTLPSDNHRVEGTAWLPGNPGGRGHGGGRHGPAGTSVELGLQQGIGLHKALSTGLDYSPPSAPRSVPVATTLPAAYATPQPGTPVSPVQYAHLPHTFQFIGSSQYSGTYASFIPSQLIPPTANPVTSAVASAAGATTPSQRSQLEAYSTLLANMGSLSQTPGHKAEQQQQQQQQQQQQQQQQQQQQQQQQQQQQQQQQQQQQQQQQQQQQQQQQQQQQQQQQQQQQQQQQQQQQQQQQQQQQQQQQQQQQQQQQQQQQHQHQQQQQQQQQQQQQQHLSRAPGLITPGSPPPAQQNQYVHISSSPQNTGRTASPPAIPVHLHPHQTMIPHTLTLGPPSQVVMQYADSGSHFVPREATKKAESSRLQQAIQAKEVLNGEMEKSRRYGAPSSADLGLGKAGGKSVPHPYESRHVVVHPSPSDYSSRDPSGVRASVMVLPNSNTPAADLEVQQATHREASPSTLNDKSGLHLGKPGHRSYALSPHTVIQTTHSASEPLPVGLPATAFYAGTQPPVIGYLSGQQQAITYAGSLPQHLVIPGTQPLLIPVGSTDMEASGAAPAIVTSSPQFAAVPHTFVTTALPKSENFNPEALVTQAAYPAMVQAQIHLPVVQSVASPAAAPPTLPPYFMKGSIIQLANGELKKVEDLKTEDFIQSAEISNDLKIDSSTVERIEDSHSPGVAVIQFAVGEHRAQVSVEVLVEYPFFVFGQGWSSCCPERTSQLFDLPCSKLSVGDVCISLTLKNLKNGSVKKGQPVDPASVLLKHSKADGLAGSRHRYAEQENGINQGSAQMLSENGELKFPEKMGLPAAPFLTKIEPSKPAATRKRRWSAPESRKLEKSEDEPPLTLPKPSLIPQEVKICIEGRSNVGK

Structure (SMILES)	level of mutant ATXN1 protein (His-ATXN1-Q92)
COc1ccc2c(c1)/C(=C/c1cnc[nH]1)C(=O)N2 [compound 6, Su9516]	Decreased levels of mutant ATXN1 were observed
O=c1cc(-c2ccccc2)c2ccc(O)c(O)c2o1 [compound 7]	Decreased levels of mutant ATXN1 were observed

Reference: patent publication US20220170930A1, “METHOD FOR SCREENING COMPOUND FOR TREATING OR PREVENTING POLYQ-RELATED NEURODEGENERATIVE DISEASES” (FUDAN UNIVERSITY, priority 2019, published 2022)
